Experimental data reported in paper PMC5630632, “Assessing inhibitors of mutant isocitrate dehydrogenase using a suite of pre-clinical discovery assays” (Scientific Reports, 2017).

Molecular target: T1, R172Q mIDH2 (Homo sapiens, UniProt P48735, R172Q)
T1 sequence (P48735 40-452 R172Q): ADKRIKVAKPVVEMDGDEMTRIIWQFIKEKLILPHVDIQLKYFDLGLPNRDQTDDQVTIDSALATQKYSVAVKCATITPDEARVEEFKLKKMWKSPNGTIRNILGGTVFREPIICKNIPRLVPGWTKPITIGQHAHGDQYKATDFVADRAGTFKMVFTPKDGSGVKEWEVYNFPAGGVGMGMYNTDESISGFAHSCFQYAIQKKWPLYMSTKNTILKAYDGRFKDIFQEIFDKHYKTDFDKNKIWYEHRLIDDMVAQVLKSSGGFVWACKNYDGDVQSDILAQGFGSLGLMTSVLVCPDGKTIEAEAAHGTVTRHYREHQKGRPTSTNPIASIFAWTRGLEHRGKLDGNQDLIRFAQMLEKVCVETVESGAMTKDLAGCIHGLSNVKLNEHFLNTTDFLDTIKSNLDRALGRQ
Assay: mIDH2-R172Q enzyme assay (Reaction Biology), diaphorase/resazurin coupled

Structure (SMILES): O=C(Nc1cccc(C(F)(F)F)c1)Nc1cc(S(=O)(=O)NC2CC2)ccc1-c1ccsc1 [AGI-6780]
- EC50: 9 nM
